# ChEMBL document CHEMBL1687713, “Antagonistic effect of rifampin on the efficacy of high-dose levofloxacin in staphylococcal experimental foreign-body infection” (Antimicrob Agents Chemother, 2008)
# Test: Ratio of AUC in Wistar rat tissue cage fluid to MIC for Escherichia coli ATCC 35218 at 100 mg/kg/day, ip measured on day 4
# Format: functional
# Conditions: route intraperitoneal
compound,measurement,value
C[C@H]1COc2c(N3CCN(C)CC3)c(F)cc3c(=O)c(C(=O)O)cn1c23.C[C@H]1COc2c(N3CCN(C)CC3)c(F)cc3c(=O)c(C(=O)O)cn1c23.O [LEVOFLOXACIN],Ratio,234
